Laboratory results reported in US7741355B2, “Small-molecule modulators of TRP-p8 activity” (Dendreon Corporation, priority 2006, dated 2010).

The chains behind the UniProt entries cited, without tags or fusion partners.
UniProt Q7Z2W7, whole entry T58I: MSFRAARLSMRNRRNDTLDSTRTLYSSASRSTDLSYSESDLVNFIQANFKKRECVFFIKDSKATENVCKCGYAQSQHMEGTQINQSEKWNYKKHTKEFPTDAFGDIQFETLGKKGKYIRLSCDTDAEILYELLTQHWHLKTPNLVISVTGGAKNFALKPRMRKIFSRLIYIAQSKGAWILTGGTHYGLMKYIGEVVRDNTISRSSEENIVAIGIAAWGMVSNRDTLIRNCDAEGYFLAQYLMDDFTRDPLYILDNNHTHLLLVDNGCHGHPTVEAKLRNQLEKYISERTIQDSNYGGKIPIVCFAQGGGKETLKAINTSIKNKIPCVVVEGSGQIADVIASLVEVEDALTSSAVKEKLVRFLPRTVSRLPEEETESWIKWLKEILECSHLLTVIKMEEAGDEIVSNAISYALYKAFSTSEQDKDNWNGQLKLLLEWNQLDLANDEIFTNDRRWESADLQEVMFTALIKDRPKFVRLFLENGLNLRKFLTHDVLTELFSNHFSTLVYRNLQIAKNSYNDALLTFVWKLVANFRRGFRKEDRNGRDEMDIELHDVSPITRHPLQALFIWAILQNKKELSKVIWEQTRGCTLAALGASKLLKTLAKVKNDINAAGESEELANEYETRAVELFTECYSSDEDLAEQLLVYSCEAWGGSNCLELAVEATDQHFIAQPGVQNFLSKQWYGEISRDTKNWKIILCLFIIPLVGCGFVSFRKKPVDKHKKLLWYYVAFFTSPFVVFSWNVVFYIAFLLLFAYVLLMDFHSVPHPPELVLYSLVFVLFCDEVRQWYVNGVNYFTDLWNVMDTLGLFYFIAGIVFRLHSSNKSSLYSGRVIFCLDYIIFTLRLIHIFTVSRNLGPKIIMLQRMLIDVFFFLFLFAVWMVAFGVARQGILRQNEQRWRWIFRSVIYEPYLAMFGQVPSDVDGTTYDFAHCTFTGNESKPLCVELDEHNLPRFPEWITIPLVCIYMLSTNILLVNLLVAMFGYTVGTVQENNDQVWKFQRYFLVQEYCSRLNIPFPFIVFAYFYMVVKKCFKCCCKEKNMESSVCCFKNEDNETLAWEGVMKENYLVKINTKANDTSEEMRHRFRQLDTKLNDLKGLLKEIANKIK

Legend:
Parent CHO = assay: ATP viability assay with non-transfected (parent) CHO cells; conditions: read-out: Parent CHO EC50
Source text: (§1) Human Trp-p8 transfected CHO cells (referred to herein as CHO/Trp-p8) were generated for use in experiments of the present invention. Expression of Trp-p8 polypeptide in this transfectant and the absence of any endogenous expression in the non-transfected CHO was confirmed by western blot and immunofluorescence using a Trp-p8 specific antibody (GS2.20) as well as the calcium flux assay with Icilin (1-[2-hydroxyphenyl]-4-[3-nitrophenyl]-1,2,3,6-tetrahydropyrimidine-2-one) and menthol (2-isopropyl-5-methyl-cyclohexanol). Non-transfected CHO cells were used to establish the specificity of the effects of the compounds observed with CHO/Trp-p8.
(§2) As a primary screen for efficacy and specificity for agonists, both the non-transfected CHO and CHO/Trp-p8 cells were exposed to 1 or 10 μM of test compounds in 1% dimethylsulfoxide (DMSO) or 1% DMSO (control) in a 96-well black walled, black-bottomed, cell-culture treated plate. DMSO was the solvent for all of the compounds tested. After 24-26 hours at 37° C., the cells were lysed and ATP concentration determined via a chemiluminescence assay using a commercially available reagent kit—Cell Titer-Glo (Promega; Madison, Wis.). […] (EC50 is defined herein as the agonist concentration at which there is a 50% reduction in relative cell viability).

Trp-p8 = Trp-p8 (Homo sapiens, UniProt Q7Z2W7, T58I); assay: ATP viability assay with CHO/Trp-p8 cells at 37° C.
Source text: as §1
This Example discloses an ATP viability assay suitable for screening for effective Trp-p8 agonists. The ATP viability assay described herein employs CHO cells expressing an exogenous Trp-p8 cDNA. This example further establishes that Trp-p8 agonists of the present invention are effective in decreasing the viability of Trp-p8 expressing cells.
The concentration of intracellular ATP declines very rapidly when metabolically active cells undergo necrosis and/or apoptosis. The ATP concentration and consequently the relative cell viability can be measured by established methods using commercially available reagents. In the agonist screening methodology disclosed herein, a compound that specifically decreases the viability of CHO/Trp-p8 cells is referred to as an agonist.
as §2

[1] = Table 5, Formula I-E, CHO/Trp-p8 cells, 24-26 hours at 37° C., 50% reduction in relative cell viability

## CC(C)[C@@H]1CC[C@@H](C)C[C@H]1C(=O)NCC(OCCN)c1ccccc1 (stereo partly shown) [Compound 30, 2-Isopropyl-5-methyl-cyclohexanecarboxylic[2-(2-amino-4-ethoxy)-2-phenyl-ethyl]-amide]
Parent CHO
  EC50: > 10000 nM
Trp-p8; read-out: CHO/Trp-p8 EC50, ATP viability assay
  EC50: 10 nM

## CC(C)[C@@H]1CC[C@@H](C)C[C@H]1C(=O)n1c(=O)n(CCN)c2cc(C(=O)NCCOCCO)ccc21
Trp-p8; [1]
  EC50: 21 to 50 nM

## CCCOc1ccc2c(c1)n(CCN)c(=O)n2C(=O)[C@@H]1C[C@H](C)CC[C@H]1C(C)C
Trp-p8; [1]
  EC50: < 20 nM

Read-outs that look alike come from different tables or passages of the source.
